Only some compounds are listed: those with a hit (about 1.8% of all), similar ones and a draw of the others.
Cneo AK release: Cryptococcus neoformans lysis via adenylate kinase release; C. neoformans lysis, adenylate kinase release luminescence, 4 h; normalised: neutral wells 0, clomiphene wells 100; lysis activity, % at 15 µM; actives 0.2% (n = 360,000); AID 651654;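 active means mean lysis activity across replicates of at least 80%, whatever share of replicates individually reach that level; inactive means mean lysis activity below 80%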
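Assay system: C. neoformans cells. Amount: yeast cell density of 5 × 10^6 cells/mL. Technique: AK luminescence. Buffer or medium: YPD. Times: static 4 h at 37 °C with compound, 1 h detection. Dosing: single-point compound dose. Read-out: lysis from increased AK signal.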
UUG fidelity: modulators of start codon recognition fidelity in yeast | S. cerevisiae UUG-firefly luciferase reporter, luminescence/redox ratio | activity score, % at 18.7 µM | 350,000 tested, 0.13% active;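 active = replicate mean at a twofold rise or more, about +100% in these data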;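 also: firefly luciferase made from a UUG start codon reports start codon fidelity; reporter light over untreated wells divided by growth signal over untreated wells; some hits fall short of that in this replicate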
E-sel inducer: induces E-selectin expression in human endothelial cells; HUVEC E-selectin immunofluorescence imaging; normalized: neutral wells 0, TNF-alpha wells 100; activation, % at 7.58 µM; actives 0.37% (n = 260,000); P16581;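 active means mean E-selectin-positive cell signal at least 10% of the positive control, reached in at least 60% of replicates, without over 20% cell loss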
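Test system: HUVEC; input: 3,000 HUVEC/well; measured by: immunofluorescence imaging; read-out: % PE-positive cells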
DENV2 CPE: protects cells from dengue virus 2 cytopathic effect | DENV2-infected cells, cytopathic effect rescue, plate reader | CPE inhibition, % at 9.99 µM | actives 1.7% (n = 350,000) | AID 651640; in the data active means CPE inhibition above about 20%, passing the limit was not always enough; tested in BHK-21 cells;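 further: 0% = median of neutral control wells and 100% = median of positive control wells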
Numbers without * were called inactive; nt = no result.

No. | molecule | Cneo AK release | UUG fidelity | E-sel inducer | DENV2 CPE
1 | COC(=O)c1c(CC[C@@H](CO)NC(=O)N[C@H](Cc2ccccc2)Cn2cc(-c3ccccn3)nn2)oc(C(C)=O)c1C(=O)OC | -2 | -25 | nt | 31*
2 | COc1ccc([C@H]2/C=C\CN(C(=O)CC(C)(C)C)[C@@H](C)C(=O)N2Cc2ccc(F)cc2)cc1 | -1 | -13 | 0 | -9
3 | COc1ccc([C@H]2/C=C\CN(C(=O)c3ccc(C)cc3)[C@@H](C)C(=O)N2Cc2ccc(F)cc2)cc1 | -1 | 14 | 0 | 125*
4 | COc1ccc(C2C(C(=O)c3ccccc3)N3c4ccccc4C=CC3C2[N+](=O)[O-])cc1 (centres undefined) | nt | nt | 120* | 3
5 | COc1ccccc1NC(=O)C(C)OC(=O)C1CCN(S(=O)(=O)c2ccccc2C(F)(F)F)CC1 (centres undefined) | -2 | -3 | nt | 54*
6 | CC(=O)Nc1ccc(NC(=O)C(C)OC(=O)C2CCN(S(=O)(=O)c3ccccc3C(F)(F)F)CC2)cc1 (centres undefined) | nt | -2 | 3 | -8
7 | CN(C)S(=O)(=O)c1ccc(Cl)c(C(=O)Nc2nc3ccccc3[nH]2)c1 | -4 | -4 | 30* | 4
8 | CCOC(=O)N/N=C/c1cc(C)n(-c2cccc3ccccc23)c1C | -1 | -4 | 1 | 37*
9 | C[C@H](CO)N1C[C@H](C)[C@@H](CN(C)S(=O)(=O)c2cn(C)cn2)OCCCC[C@H](C)Oc2ccc(NC(=O)C3CCCCC3)cc2C1=O | -2 | 3 | 0 | -3
10 | Cc1cc(C)cc(OCc2nc(-c3cccnc3)no2)c1 | nt | nt | nt | -2
11 | Cc1ccc(OCc2nc(-c3cccnc3)no2)cc1C | -4 | 1 | 424* | -1
12 | O=S(=O)(c1ccc(=S)[nH]c1)N1CCN(Cc2ccccc2)CC1 | 2 | -9 | -1 | 25*
13 | O=S(=O)(c1ccc(=S)[nH]c1)N1CCCCC1 | 2 | -17 | nt | 2
14 | Cc1noc(C)c1S(=O)(=O)Nc1ccc2c(c1)C(=O)N([C@@H](C)CO)C[C@@H](C)[C@H](CN(C)CC1CC1)OCCCC[C@H](C)O2 | 1 | 13 | 0 | 4
15 | C[C@H](CO)N1C[C@H](C)[C@H](CN(C)S(=O)(=O)c2cn(C)cn2)Oc2c(NC(=O)NC3CCCCC3)cccc2C1=O | 1 | -2 | 0 | -3
16 | C[C@@H]1CN([C@H](C)CO)C(=O)c2cc(NS(=O)(=O)c3ccc(F)cc3)ccc2O[C@@H](C)CCCCO[C@@H]1CN(C)Cc1ccncc1 | 0 | 17 | 0 | 34*
17 | C[C@H]1CCCCO[C@H](CN(C)Cc2ccccc2)[C@@H](C)CN([C@@H](C)CO)C(=O)c2cc(NS(=O)(=O)c3ccc(F)cc3)ccc2O1 | 1 | 13 | nt | 29*
18 | C[C@@H]1CCCCO[C@H](CN(C)Cc2ccncc2)[C@H](C)CN([C@H](C)CO)C(=O)c2cc(NS(=O)(=O)c3ccccc3)ccc2O1 | 0 | -7 | nt | 28*
19 | C[C@@H]1CCCCO[C@@H](CN(C)Cc2ccccc2)[C@@H](C)CN([C@@H](C)CO)C(=O)c2cc(NS(=O)(=O)c3ccc(F)cc3)ccc2O1 | -1 | 27 | nt | -1
20 | C[C@@H]1CCCCO[C@@H](CN(C)Cc2ccncc2)[C@H](C)CN([C@H](C)CO)C(=O)c2cc(NS(=O)(=O)c3ccc(F)cc3)ccc2O1 | -1 | -9 | 0 | -2
21 | C[C@H]1CCCCO[C@@H](CN(C)Cc2ccc(C(F)(F)F)cc2)[C@@H](C)CN([C@@H](C)CO)C(=O)c2cc(NS(=O)(=O)c3ccc(F)cc3)ccc2O1 | 4 | 3 | 0 | -8
22 | C[C@@H]1CCCCO[C@H](CN(C)Cc2ccc(C(F)(F)F)cc2)[C@H](C)CN([C@H](C)CO)C(=O)c2cc(NS(=O)(=O)c3ccc(F)cc3)ccc2O1 | 3 | 21 | 0 | 30*
23 | CCCN1C[C@@H](C)[C@@H](OC)CN(C)C(=O)c2cc(NC(=O)c3cccc(F)c3)ccc2OC[C@H]1C | -2 | 5 | 0 | -10
24 | COc1cccc(C#Cc2ccc3c(c2)[C@H]2[C@H](CCN2S(=O)(=O)c2cccc(OC)c2)[C@@H](CO)N3)c1 | nt | nt | 0 | -5
25 | COc1ccc(S(=O)(=O)N2CC[C@@H]3[C@H]2c2cc(C#Cc4ccccc4OC)ccc2N[C@@H]3CO)cc1 | 1 | -26 | 0 | 46*
26 | O=S(=O)(c1ccccc1)N1CC[C@@H]2[C@H](CO)Nc3ccc(C#Cc4cccc(F)c4)cc3[C@@H]21 | 5 | -12 | 1 | 9
27 | COc1cccc(C#Cc2ccc3c(c2)[C@H]2[C@H](CCN2S(=O)(=O)c2cccc(OC)c2)[C@H](CO)N3)c1 | nt | nt | 0 | 38*
28 | O=S(=O)(c1ccccc1)N1CC[C@H]2[C@H](CO)Nc3ccc(C#Cc4cccc(F)c4)cc3[C@H]21 | nt | nt | 0 | 30*
29 | Cc1noc(C)c1S(=O)(=O)N(C)C[C@@H]1Oc2ccc(NS(C)(=O)=O)cc2CC(=O)N([C@H](C)CO)C[C@@H]1C | -2 | -7 | -1 | 0
30 | Cc1cc(C(=O)Nc2cccc3c2O[C@H](CN(C)C(=O)NC(C)C)[C@H](C)CN([C@@H](C)CO)C3=O)n(C)n1 | 3 | 17 | 0 | 5

Entries of single compounds from above.
C[C@@H]1CCCCO[C@@H](CN(C)Cc2ccccc2)[C@@H](C)CN([C@@H](C)CO)C(=O)c2cc(NS(=O)(=O)c3ccc(F)cc3)ccc2O1 is listed as Cneo AK release = -1; UUG fidelity = 27; E-sel inducer = nt; DENV2 CPE = -1
CCCN1C[C@@H](C)[C@@H](OC)CN(C)C(=O)c2cc(NC(=O)c3cccc(F)c3)ccc2OC[C@H]1C is listed as Cneo AK release = -2; UUG fidelity = 5; E-sel inducer = 0; DENV2 CPE = -10

Back to the main list with the three entries that preceded the break.
No. | molecule | Cneo AK release | UUG fidelity | E-sel inducer | DENV2 CPE
28 | O=S(=O)(c1ccccc1)N1CC[C@H]2[C@H](CO)Nc3ccc(C#Cc4cccc(F)c4)cc3[C@H]21 | nt | nt | 0 | 30*
29 | Cc1noc(C)c1S(=O)(=O)N(C)C[C@@H]1Oc2ccc(NS(C)(=O)=O)cc2CC(=O)N([C@H](C)CO)C[C@@H]1C | -2 | -7 | -1 | 0
30 | Cc1cc(C(=O)Nc2cccc3c2O[C@H](CN(C)C(=O)NC(C)C)[C@H](C)CN([C@@H](C)CO)C3=O)n(C)n1 | 3 | 17 | 0 | 5
31 | C[C@H](CO)N1C[C@H](C)[C@H](CN(C)C(=O)[C@H](Cc2ccccc2)N(C)C)OCc2ccccc2-c2c(n(C)c3ccccc23)C1=O | -2 | nt | 0 | 5
32 | COc1cc2c(cc1OC)C(C)N(C(=O)Cn1ncc3c1-c1cc(C)ccc1OC3)CC2 (centres undefined) | 1 | -17 | nt | 70*
33 | O=C(NCCc1ccccc1)[C@@H]1[C@@H](CO)[C@@H]2Cn3c(cccc3=O)[C@H]1N2C(=O)C1CCC1 | 102* | 30 | 0 | 0
34 | O=C(NCCc1ccccc1)[C@H]1[C@H](CO)[C@H]2Cn3c(cccc3=O)[C@@H]1N2C(=O)C1CCC1 | 105* | 22 | 0 | 1
35 | O=C(NCCc1ccccc1)[C@H]1[C@H](CO)[C@H]2Cn3c(cccc3=O)[C@@H]1N2C(=O)C1CCCC1 | -4 | 10 | 0 | -2
36 | CCCNC(=O)N[C@H]1CC[C@H](CCNS(=O)(=O)c2cccc(F)c2)O[C@H]1CO | 1 | -10 | 0 | 0
37 | CN(C)Cc1csc(NC(=O)Nc2cccc(Cl)c2)n1 | 2 | 25 | 0 | -1
38 | NCc1csc(NC(=O)Nc2cccc(Cl)c2)n1 | -1 | -9 | 0 | 25*
39 | COC(=O)c1c(-c2ccc(OC)cc2)sc2cc3c(cc12)OCO3 | -2 | -3 | nt | 20*
40 | COC(=O)C[C@@H]1CC[C@@H]2[C@@H](COc3ccc(NS(=O)(=O)c4ccccc4F)cc3C(=O)N2C)O1 | 6 | -4 | 0 | 1
41 | CC(C)CNC(=O)C1(C)CCCCCN1C(=O)c1csnn1 (centres undefined) | -1 | -13 | 0 | 113*
42 | CC(C)[C@@H]1COCc2cn(nn2)CCC[C@@H](C)C(=O)N1 | nt | nt | 0 | nt
43 | C[C@H](CO)N1C[C@H](C)[C@H](CN(C)S(C)(=O)=O)Oc2c(NS(C)(=O)=O)cccc2C1=O | 6 | -14 | 64* | 3

Source: PubChem BioAssay
